Values quoted from earlier work, collected in publication PMC10762250, “Molecular mechanism of antihistamines recognition and regulation of the histamine H1 receptor” (Nature Communications, 2024).

Test system: human H1R F435A
Conditions: cited from earlier work

SMILES: COc1ccc(CN(CCN(C)C)c2ccccn2)cc1 [mepyramine]
- Decrease in affinity by mutation: 4 fold
